Source: PMC3875372 (Biochemistry, 2013)

Tests used:
[1] = N-pentenoyl protected form, in acetonitrile
[2] = system: ecDHFR; details: DHFRs modified at position 115, Table 3; relative to wild type

4-biphenyl-L-phenylalanine
ΦF (fluorescence quantum yield) [1]: 0.73 | ε [1]: 38,250 | λex (nm) [1]: 283 nm | λmax (nm) [1]: 283 nm | λem (nm) ([1]; excited at λmax): 344 nm | relative activity (%) [2]: 91 ± 3%
